scFv variants of Ab-14 (light chain) against a SARS-CoV-2 spike peptide

From the AlphaSeq antibody data of Li et al. 2023 (doi:10.1038/s41467-023-39022-2), copy in the FLAb collection.

The target is the same throughout: PDVDLGDISGINAS, from the HR2 region of SARS-CoV-2 spike.

Each scFv is VH, a (GGGGS)3 linker, VL, as in the parent Ab-14, and differs from it in the CDRs of the light chain only.
VH: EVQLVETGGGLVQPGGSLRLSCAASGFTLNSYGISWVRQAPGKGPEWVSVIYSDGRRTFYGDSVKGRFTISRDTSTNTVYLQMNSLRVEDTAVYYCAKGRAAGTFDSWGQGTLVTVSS
VL: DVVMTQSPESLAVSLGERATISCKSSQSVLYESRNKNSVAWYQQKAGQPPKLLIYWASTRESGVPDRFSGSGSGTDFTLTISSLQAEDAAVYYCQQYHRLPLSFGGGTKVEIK

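Designed CDR sequences, proposed from the first random library and measured here. Their group label is 14L_Ctrl (Ctrl: baseline library sampled from a position-specific scoring matrix, with some repeated check sequences). Affinity was read by AlphaSeq, a pooled yeast mating assay with surface-displayed partners. Mating (16 h, 30 °C) was followed by selection of diploids and sequencing of their barcodes. Scores were corrected for input abundance and mapped to Kd with protein pairs of known affinity run in the same pool. Each pool was mated in six replicate cultures.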

The parent's light chain CDRs are KSSQSVLYESRNKNSVA, WASTRES, QQYHRLPLS; each variant's own CDRs replace them letter for letter. The read-out is the apparent dissociation constant on a log10 scale (nM): the lower, the stronger. Averages over replicates are reported, and they cover detected replicates only. A pair that was not seen in that replicate is written "ND"; this usually means weak binding, but a binder can also be missed. The range of this assay differs from that of the first round, and the authors advise against merging the two.

CDR-L1	CDR-L2	CDR-L3	log10 Kd, replicates	mean log10 Kd (nM)	signal with controls
KSSQSVLYESRNKNSVA	WASTRES	QYYHRWPLS	ND ND ND ND ND ND	ND	0/18
KSSQSPLYESRNENSVA	YGSTREM	QQYHRLPLS	1.15 ND 1.19 0.75 1.86 0.94	1.18	0/18
FSLQSVEYESRNPNSVA	WASTRES	QMYHRLPLS	ND ND ND ND ND ND	ND	0/18
KFSQSVLYEHRNRNSVA	WASTRES	QQYHRLPLS	2.20 2.51 1.13 1.40 1.42 1.80	1.74	0/18
KQSQSVMYESRNKNSVA	WATTRES	QQYHRLPLS	ND ND ND ND ND ND	ND	0/18
KSAQSLLYESRFKNSVA	GASTRES	QQYHRLPLS	1.05 1.30 1.18 0.94 1.24 1.13	1.14	1/18 (4.41)
KSSQSVLYESNNKNSVA	WASIHES	QQYHRLPLS	ND ND ND ND 1.27 ND	1.27	0/18
KSSQSVMPESRNFNSVA	WASTRES	QQYHRLPLS	2.04 1.95 1.98 1.50 2.01 1.54	1.84	1/18 (3.21)
KSRQSVLYESRNKNSVA	WASTRES	QQMPRLPLS	ND ND ND ND ND 2.65	2.65	0/18
KSSQSVLYESRNKNSVA	WESTRES	QQYHRLPLS	2.45 ND 1.79 ND ND ND	2.12	1/18 (2.42)
KSSQSVLYESRNLNHVA	RASTRES	QQYYRLPLS	0.78 0.75 0.42 0.33 1.88 0.67	0.80	1/18 (1.73)
KSSTSVLYESRNKNSVA	DAVTRES	QQYHRLPLS	0.81 0.78 0.69 0.40 0.57 0.72	0.66	0/18
KSSQSVIYESRNKNNVA	WASLRES	QQYHRLPLS	ND ND ND ND ND ND	ND	0/18
KSSQSVLYDSRNKNSVA	WASTRSS	QQYHRLPLS	ND ND ND ND ND ND	ND	0/18
KSSQSVLYESRNKNSVA	NASTRES	QQYFRLPLY	1.72 1.00 1.24 0.98 1.11 1.10	1.19	0/18
KSSQSFLYESTNKNSVA	WGSTREK	QQYHRLPLS	2.20 ND 1.34 2.63 1.78 1.93	1.98	0/18
KSSVSVLQESRNKNSVA	WASTRES	QQYHRLPLS	1.64 1.29 1.21 1.28 1.57 2.11	1.52	0/18
KSSSSKLYESRNFNSVA	SASTRES	QQYHRLPLS	1.21 1.04 0.87 0.80 1.43 1.44	1.13	1/18 (2.87)
KSDQSVLYESLNFNSVA	WRSTRES	QQYHRLPLS	ND ND ND ND ND ND	ND	0/18
KSSQSVLYESYDGNSVA	WASTRES	QLYHRLPLS	ND ND ND ND ND ND	ND	0/18
KSSGSVLMEQRNKNSLA	WASTRES	QQYHRLPLS	ND ND 3.53 ND ND 3.49	3.51	0/18
KSSTSVLMESRNKNSVA	WASTRES	QQYHRLPLS	ND ND 1.27 2.45 ND 1.78	1.83	0/18
QSSQSVLLESRLKNSVA	MASTRES	QQYHRLPLS	ND 2.79 ND 2.14 ND 3.49	2.81	0/18
KSSFSVLYESRNKNSVA	WASTRES	QQYHRLPLS	ND 1.58 ND ND ND ND	1.58	0/18
KDDQSVLYESMNKNSVA	WASTRES	AQYHRLPLS	ND ND ND ND ND ND	ND	0/18
KSSQSVLYESRNKNSVA	KASVRES	QQYHRLPLS	0.80 0.38 1.73 -0.03 0.63 0.96	0.74	0/18
DSSQSVLYESRNKNSIA	GASTRES	QQYHRLPLS	0.16 0.24 1.84 -0.06 0.37 -0.02	0.42	0/18
KSSQSVLYESRNGNSVA	WASTRES	YQYHRLPLS	ND ND ND ND ND ND	ND	0/18
KSSQSVLYLSRNKNSVA	WASTREK	QQYTRLPLS	ND ND ND ND ND ND	ND	0/18
KSSQSVPYESRNKNSVA	RASTRES	QQYHRLPLS	0.72 0.39 0.40 1.20 0.54 0.76	0.67	0/18
KSSQVVLYENRNKNSVA	GANTRES	QQYHRLPLS	0.33 0.21 0.19 -0.06 0.23 0.23	0.19	0/18
ISSQGTLYESNVKNSVA	EASTREM	QQYHRLPLS	0.12 0.92 1.77 0.21 0.11 1.01	0.69	0/18
KSSQSVLHESWNKTSVA	KASTRED	QQYHRLPLS	0.28 0.70 0.28 0.08 0.17 0.18	0.28	0/18

The opening 5 entries, copied out:

CDR-L1,CDR-L2,CDR-L3,"log10 Kd, replicates",mean log10 Kd (nM),signal with controls
KSSQSVLYESRNKNSVA,WASTRES,QYYHRWPLS,ND ND ND ND ND ND,ND,0/18
KSSQSPLYESRNENSVA,YGSTREM,QQYHRLPLS,1.15 ND 1.19 0.75 1.86 0.94,1.18,0/18
FSLQSVEYESRNPNSVA,WASTRES,QMYHRLPLS,ND ND ND ND ND ND,ND,0/18
KFSQSVLYEHRNRNSVA,WASTRES,QQYHRLPLS,2.20 2.51 1.13 1.40 1.42 1.80,1.74,0/18
KQSQSVMYESRNKNSVA,WATTRES,QQYHRLPLS,ND ND ND ND ND ND,ND,0/18

The authors' rule: three or more of the six replicates give a measured affinity, fewer mean a poor binder. As a blank, each scFv also met three strains without target: over all light chain designs, 4% of these pairings were detected, typically at 2.64 and seldom below 1.59. For each scFv, signals with the empty controls are counted beside the result, with their mean in brackets.